Data: patent US20260250269A1, “APOPTOSIS INHIBITOR SALTS FOR CANCER” (priority 2022, published 2026)

Key:
[1] = tested on: SU-DHL-10 human diffuse large B cell lymphoma xenograft; assay: Anti-tumor activity against SU-DHL-10 xenograft; assay type: in vivo, BALB/c nude mice
Procedure: For the monobromide continuous i.v. infusion group, the monobromide was dissolved with physiological saline to prepare 12.12 mg/mL clear solution.
For the monobromide i.p. injection group, the monobromide was dissolved with physiological saline to prepare 0.41 mg/mL clear solution. The dose volume was determined by the mice′ body weight collected on the morning of dosing day, calculated by the formula: dose volume (10 mL/kg)×body weight.
For the pamoate i.m. injection group, the pamoate salt was mixed with appropriate volume of vehicle solution (0.5% CMC-Na (viscosity 400-800 cps, CAS No. 9004-32-4), 0.2% Tween-80 in 10 mM pH 7.4 PBS saline) to get a uniform suspension after 15 min sonication, with final concentration of 5.6 mg/mL, similar to the procedure described in Example 14. The dose volume was determined by the mice′ body weight collected on the morning of dosing day, calculated by the formula: dose volume (2 mL/kg)×body weight.
Human diffuse large B cell lymphoma cell line SU-DHL-10 was obtained from Cobioer Biotechnology Co., Ltd (China). The cells were cultured at 37° C. with 5% CO2 in RPMI-1640 (Hyclone, USA) supplemented with 10% heat inactivated fetal bovine serum (Gibco, USA) and 1% GlutaMAX (Gibco, USA). The cells were collected, suspended in PBS at 2×10^8 cells/mL, and then mixed with the equivalent volume of Matrigel® Basement Membrane Matrix (Corning, USA).
Six-week-old female BALB/c-nude mice were purchased from SPF Biotechnology Co., Ltd. (Beijing, China). They were maintained on a standard diet and water throughout the experiments under specific pathogen-free conditions. The cells were cultured in vitro and 0.1×10^8 cells/0.1 mL/mouse were grafted subcutaneously into the flank of NOD-SCID (NVSG) mice (Beijing Viewsolid Biotech Co. LTD), 6-week-old. When the tumor reached about 1 cm in diameter, tumor-bearing mice were sacrificed and tumors were removed and sliced into small fragments (approximately 3×3×3 mm^3/fragment) and re-inoculated into BALB/c nude mice. The mice with a tumor volume (length×width^2×0.5) of 99.28 to 247.10 mm^3 were divided into four groups randomly, using Study Director Software (Studylog Systems, Inc, Version 3.1.399.22, USA) to minimize intragroup and intergroup tumor volume variation.
The first day of administration was designated day 0, and observation continued until day 35. Each group was treated as follows (Table 15).
The vehicle control group received i.m. injection of vehicle solution on day 0, 7 and 14 (Group 1). For 21-day continuous i.v. infusion, an osmotic pump containing the monobromide was implanted in the dorsum of each animal while under anesthesia on day 0, with daily dose of […], approximately 1.6 mg/kg/day (Group 2). The monobromide i.p. injection group was administrated referring to FIVE-DAY-ON, TWO-DAY-OFF procedure on day 0-4, 7-11 and 14-18 (Group 3) per Minoda et. al, Antitumor effect of YM155, a novel small-molecule survivin suppressant, via mitochondrial apoptosis in human MFH/UPS, International Journal of Oncology, 2015, 47:891-899. For the pamoate i.m. injection group, drug suspension was administrated once per week at 11.2 mg/kg, approximately 7 times daily dosage of the monobromide i.v. infusion group, on day 0, 7 and 14 (Group 4).

[2] = Preliminary photostability study of monobromide (D65 light, 1000 lux); assay type: physicochemical; set-up: key to Thermal behavior / UV / IR / XRPD pattern: a: Conforms to the reference; b: Conforms to Typical DSC/TGA curves as the reference standard; NC: No change
Procedure: Degradation occurred after 2 months of light exposure (D65 light, 1000 lux, 25° C./60% RH) for the monobromide, as evidenced by a color change from yellow to yellowish brown and a slight increase in HPLC peak areas, attributed to degradation products (Table 17).

[3] = Body weight in SU-DHL-10 xenografted mice; details: for Mean Body Weight ± SEM: Group 2: 1.6 mg/kg/day continuous i.v. infusion Day 0-21
[4] = Photostability test (ICH Option 1, ID65 light)
[5] = Group 2: 1.6 mg/kg/day continuous i.v. infusion Day 0-21, Day 21
[6] = Group 2: 1.6 mg/kg/day continuous i.v. infusion Day 0-21, Day 35
[7] = Group 3: 4.1 mg/kg i.p. day 0-4, 7-11, 14-18, Day 21
[8] = Group 3: 4.1 mg/kg i.p. day 0-4, 7-11, 14-18, Day 35
[9] = D65 light, 1000 lux, 25° C./60% relative humidity, Storage Period 1 (months)
[10] = D65 light, 1000 lux, 25° C./60% relative humidity, Storage Period 2 (months)
[11] = ID65 light, 250 W/m^2, 25° C./60% RH (ICH Option 1), 26.2 hours
[12] = ID65 light, 250 W/m^2, 25° C./60% RH (ICH Option 1), 26.2 hours, listed as Monobromide
[13] = Initial, irradiation time 0 hours

## 1-(2-methoxyethyl)-2-methyl-4,9-dioxo-3-(pyrazin-2-ylmethyl)-4,9-dihydro-1H-naphtho[2,3-d]imidazolium bromide [monobromide]
[1]; Group 2: 1.6 mg/kg/day continuous i.v. infusion Day 0-21, Day 0
  Mean Tumor Volume ± SEM: 155.72 ± 14.71 mm^3
[1]; Group 2: 1.6 mg/kg/day continuous i.v. infusion Day 0-21, Day 7
  Mean Tumor Volume ± SEM: 0.00 ± 0.00 mm^3
[1]; [5]
  Antitumor Activity, percent inhibition of tumor growth (% inh): 118.81%
  Antitumor Activity, percent regression of the tumor (% reg): 100%
  Mean Tumor Volume ± SEM: 0.00 ± 0.00 mm^3
[1]; Group 2: 1.6 mg/kg/day continuous i.v. infusion Day 0-21, Day 28
  Mean Tumor Volume ± SEM: 0.00 ± 0.00 mm^3
[1]; [6]
  Antitumor Activity, percent inhibition of tumor growth (% inh): 107.67%
  Antitumor Activity, percent regression of the tumor (% reg): 80.31%
  Number of CRs (complete response): 3/6
[1]; Group 3: 4.1 mg/kg i.p. day 0-4, 7-11, 14-18, Day 0
  Mean Tumor Volume ± SEM: 156.93 ± 15.69 mm^3
[1]; Group 3: 4.1 mg/kg i.p. day 0-4, 7-11, 14-18, Day 7
  Mean Tumor Volume ± SEM: 5.20 ± 3.29 mm^3
[1]; [7]
  Antitumor Activity, percent inhibition of tumor growth (% inh): 118.96%
  Antitumor Activity, percent regression of the tumor (% reg): 100%
  Mean Tumor Volume ± SEM: 0.00 ± 0.00 mm^3
[1]; [8]
  Antitumor Activity, percent inhibition of tumor growth (% inh): 76.78%
  Antitumor Activity, percent regression of the tumor (% reg): −241.38%
  Number of CRs (complete response): 0/6
[2]; [9]
  Assay (%) HPLC: 100.0%
  Assay (%) Titration: 100.2%
  Description: Yellowish
  IR: NC
  Related Substances (HPLC, %) Each max: 0.13%
  Related Substances (HPLC, %) Total: 0.22%
  Thermal behavior: NC
  UV: NC
  Water content (%): 0.06%
  XRPD pattern: NC
[2]; [10]
  Assay (%) HPLC: 99.5%
  Assay (%) Titration: 100.1%
  Description: Yellowish
  IR: NC
  Related Substances (HPLC, %) Each max: 0.19%
  Related Substances (HPLC, %) Total: 0.49%
  Thermal behavior: NC
  UV: NC
  Water content (%): 0.07%
  XRPD pattern: NC
[2]; Initial, Storage Period 0
  Assay (%) HPLC: 100.9%
  Assay (%) Titration: 100.0%
  Description: Yellow
  IR: a
  Related Substances (HPLC, %) Each max: 0.08%
  Related Substances (HPLC, %) Total: 0.08%
  Thermal behavior: b
  UV: a
  Water content (%): 0.05%
  XRPD pattern: a
[2]; preliminary study, D65 light, 1000 lux, 25° C./60% RH, 2 months
  Photostability (in words): photo-unstable
[3]; Day 21
  Mean Body Weight ± SEM: 22.07 ± 0.66 g
[3]; Day 35
  Mean Body Weight ± SEM: 22.42 ± 0.57 g
[3]; each group (Groups 2-4), until day 35
  Body weight decrease (in words): no statistically significant decrease in body weight
[4]; ICH Option 1 irradiation, 26.2 hours
  Photostability (in words): severe photodegradation
[4]; [11]
  Description: dark purple crystalline powder
  Purity % (HPLC): 93.61%
  XRPD: no significant change
[4]; [12]
  Description: Dark Purple
  XRPD: Consistent
[4]; [13]
  Description: Yellow
  Purity % (HPLC): 99.81%
[4]; after ICH Option 1 irradiation, 26.2 hours
  Reduction of HPLC purity: 6.2%
